In experiment [1] the test system is guinea-pig right atrial preparation. In words: Rate and force of contraction of isolated guinea-pig right atrium. It is filed as cell-based. The protocol:
Male Dunkin Hartley guinea-pigs (280-400 g) were killed by cervical dislocation and exsanguinated. The heart was removed, the right atrium dissected out and mounted under 0.5 g tension in Krebs solution (mM): NaCl 118, KCl 4.7, CaCl2 2.5, KH2 PO4 1.18, NaHCO3 25, MgSO4 1.18 and glucose 11.1, at 34° C. bubbled with 95:5 02 :CO2. Atrial force and rate were measured isometrically by a Grass FT.03 transducer and recorded on a Grass polygraph. Single doses of either human or rat CGRP were given in a random order.

Experiment [2] concerns antibody raised against Tyr-(CGRP amino acids 25-37)-amide. In words: Radioimmunoassay cross-reactivity with 125I-Tyr-(CGRP amino acids 25-37)-amide tracer. To be noted: 1:12500 dilution of serum, 1800 cpm tracer, 400 μl assay. The experiment is classed as binding, rabbit. The method, then:
Evidence that the fusion protein produced, contains CGRP protein sequence was determined by radioimmunoassay of HB101/pCAT-CGRP cell extracts. Cells from a 500 ml culture were harvested and lysed in a lysozyme/sodium deoxycholate mixture (5 ml), then treated with DNase for 30 mins. at 5° C. (Emtage J. S. et al PNAS (1983), 80, p 3671-3675). An equal volume of 0.1M Tris HCl pH 8.0, 0.1 mM EDTA, 5% (v/v) glycol, was then added, and the presence of human CGRP sequence determined in the extract. Radioimmunoassay was carried out in 0.05M phosphate buffer pH 7.4 in a final volume of 400 ul (see Girgis, S. I. et al J. Endocrinol 78, 372-382). Antiserum was raised in rabbits, using the known techniques, against Tyr-(CGRP amino acids 25-37)-amide and conjugated to chick ovalbumin (Reichlin, M.1980, Meth.Enzymol 70 159-165) and against ^125 I Tyr-(CGRP amino acids 25-37)-amide tracer.
The tracer was iodinated using the Chloramine T method of Hunter and Greenwood. It can be seen from FIG. 5 that HB101/pCAT-CGRP protein extract displaced the tracer (5000 cpm) using a 1:10000 serum dilution with a displacement curve similar to that of the human CGRP standard (chemically synthesised). No displacement was observed using protein extract which had been previously digested overnight with trypsin (0.5 mg/ml) overnight at 37° C. followed by inactivation of the trypsin with trasylol. […]

Experiment [3] deals with pentobarbitone anaesthetised rat. Kind of experiment: Cardiovascular actions (mean arterial pressure, heart rate) after i.v. administration in anaesthetised rats. The experiment is classed as in vivo. The protocol: Groups of 4 to 6 male Sprague-Dawley rats (285-315 g) were anaesthetised with sodium pentobarbitone (60 mg Kg^-1 i.p.). The trachea, left carotid artery and left jugular vein were cannulated. Blood pressure was recorded from the carotid artery on a Grass polygraph via a Statham P23 ID pressure transducer and mean arterial pressure derived from the trace. Heart rate was measured by a tachograph (Grass model 7P4) triggered by the blood pressure signal. Human CGRP was obtained either crude off the resin, then purified, or latterly in a purified form from Peninsula Laboratories. Purified rat CGRP was from the same source. All synthetic preparations were subject to mass spectrometry (M-Scan Ltd.) to confirm structure and purity before use. Human CGRP, rat CGRP, propranolol hydrochloride (Sigma), mepyramine maleate (Sigma), cimetidine hydrochloride (SK & F), histamine diphosphate (Sigma) were dissolved in 0.9% w/v saline. All compounds were administered intravenously except for mepyramine (s.c.). Saline, human CGRP (o) and rat CGRP (Δ) were administered cumulatively in volumes of 0.1 ml per rat at 2 min intervals. The peak fall in mean arterial pressure (MAP) and heart rate (HR) after 2 min was measured.
In the pentobarbitone anaesthetised rat, intravenous human CGRP evoked a rapid dose-related fall in blood pressure, maximal within 1 min, and representing a 50% decrease in blood pressure at a dose of 0.28 nmol Kg^-1. […] Since a fall in blood pressure may be evoked indirectly by basic peptides through the release of histamine (Goth, A. (1973) In Histamine and antihistamines (Ed. Schachter, M.) Vol. I. Int. Encyclopedia of Pharmacology and Therapeutics, Section 74, 25-43 Pergamon Press, Oxford), and human CGRP is a relatively basic peptide, we have examined the effect of pretreatment with the histamine H1 -receptor antagonist mepyramine and the histamine H2 -receptor antagonist cimetidine prior to human CGRP administration. […] We have investigated this possibility by i.v. administration of human CGRP after pretreatment with the β-adrenoceptor antagonist propranolol (in a dose sufficient to shift an isoprenaline dose-response curve to the right by 2 log units). […] The duration of the response to human CGRP was measured following administration of a single dose. Human CGRP 1 nmol. […]. […] Whilst 10 ug/kilo PDA-4 caused a drop in mean arterial pressure of 15-20 mm Hg and an increase in heart beat rate of 15-20 bpm. The mechanism of action of PDA-4 was not examined.

[4] abbreviates: isolated atrium, Krebs solution, 34° C.
The mark [5] stands for this setting: i.v., cumulative doses at 2 min intervals, anaesthetised rat.
Where [6] appears, read: i.v., pentobarbitone anaesthetised rat.

Entries after “also recorded” stand apart in the source; their conditions may differ. Some results are limits rather than exact numbers.

Regarding “human CGRP: amidated 37 amino acid human calcitonin gene related peptide, chemically synthesised, Mr 3786”, in experiment [1] (setting [4]), the “force of contraction of right atrium” value is listed as “concentration dependent increases” and the “rate of contraction of right atrium” value was “concentration dependent increases”. The “responses (rate and force) in presence of propranolol or cimetidine” value in experiment [1] (propranolol 300 nM or cimetidine 100 μM, equilibrated 30 min) is reported as “did not alter the responses”. The “cross-reaction with the antibody (displacement of tracer)” value in experiment [2] is “expected displacement curve”. For the same substance, in experiment [3] (1 ug/kilo i.v.), the “drop in mean arterial pressure” value was found to be 50 mmHg and the “increase in heart beat rate” value is 25-30 b.p.m. Also, in experiment [3] (setting [5]), the “fall in mean arterial pressure (MAP)” value was “dose-dependent fall in MAP” and the “increase in heart rate (HR)” value was “increase in HR; also recorded: small but significant increases in heart rate”. Besides, in experiment [3] (setting [6]), the “dose representing a 50% decrease in blood pressure” value was 0.28 nmol/kg and the “time to maximal fall in blood pressure” value is recorded as not above 1 min. Besides, the “hypotensive effect after mepyramine and cimetidine pretreatment” value in experiment [3] (mepyramine 12.4 μmol Kg^-1 s.c. and cimetidine 59.5 μmol Kg^-1 infusion over 30 min) is “did not significantly alter the hypotensive effect”. Also, the “increase in heart rate after propranolol pretreatment” value in experiment [3] (propranolol 3.4 μmol Kg^-1 i.v. 5 min before human CGRP) is listed as “did not prevent the increase in heart rate”. The “time taken for the blood pressure to recover by 50%” value in experiment [3] (single dose 1 nmol Kg^-1 i.v.) was 3.8 ± 0.5 min. The “arterial pressure after single dose” value in experiment [3] (single dose 1 nmol Kg^-1 i.v., lowered from 125.0±7.6 mm Hg) was found to be 68.3±9.3 mm Hg.

Values taken from patent publication US5374618A, “Calcitonin peptides, and gene related pharmaceutical compositions” (Celltech Limited, priority 1983, dated 1994).
